The list shows a part of the results, in another mix than the full data. Active and inactive are the calls of the source. Rule as the data show it: active = inhibition above about 22%; inactive = the rest.
The molecules below were run against Melanin-concentrating hormone receptor 1 (Homo sapiens) (UniProt Q99705) (assay: antagonism of human MCHR1 receptor – cell-based, fluorescence, counter-screen for GPR7 antagonist project (AID 2148;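 also: 0% = vehicle with agonist and 100% = vehicle without agonist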)). Details: MCHR1-expressing cells, fluorescence antagonist assay; at 4.4 µM; hits give high values.
O=c1c2cc([N+](=O)[O-])ccc2[nH]c2c([N+](=O)[O-])cc([N+](=O)[O-])cc12 was tested, and the inhibition was active: 56.4%. In the case of COc1ccccc1OP(=O)(Nc1ccc(C)cn1)Oc1ccccc1OC, the inhibition is reported as active: 31.4%.

— PubChem BioAssay AID2148 (The Scripps Research Institute Molecular Screening Center, 2009)
